This is an account of results in patent US7402595B2, “JNK inhibitor” (Takeda Pharmaceutical Company Limited, priority 2002, dated 2008).

Protein sequences, listed by entry. Tags and fused reporters are not part of them. Residues count along the entry.
UniProt P45983, 1-384 isoform P45983-2: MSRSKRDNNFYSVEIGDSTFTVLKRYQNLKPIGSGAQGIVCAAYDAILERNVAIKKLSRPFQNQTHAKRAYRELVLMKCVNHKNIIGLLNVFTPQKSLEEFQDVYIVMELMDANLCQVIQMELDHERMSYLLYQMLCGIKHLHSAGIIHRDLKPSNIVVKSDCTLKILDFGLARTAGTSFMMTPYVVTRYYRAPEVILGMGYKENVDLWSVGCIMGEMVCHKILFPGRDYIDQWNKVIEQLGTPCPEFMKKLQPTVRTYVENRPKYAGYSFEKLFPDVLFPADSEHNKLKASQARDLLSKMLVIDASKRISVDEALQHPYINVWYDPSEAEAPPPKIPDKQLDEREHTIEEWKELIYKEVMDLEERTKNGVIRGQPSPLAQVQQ

Structures are written as SMILES.

The target in one experiment is T1, human JNK1 (Homo sapiens, UniProt P45983).
T1 construct: His6 (Met-Ala-His6, read from primer JNK1-U) (N); made in house; host or cells: Sf-21 insect cells (baculovirus BAC-HJNK1 co-infected with BAC-caMKK7); cJUN substrate from E. coli JM109
Put plainly: Measurement of JNK inhibitory activity (32P uptake into cJUN by active JNK1). The format is biochemical. Conditions: 2.5 μM ATP, 30° C., 60 min. The method, then:
(4) Preparation of Active JNK1
Sf-21 cells were seeded to achieve 1×10^6 cells/ml in 100 ml of Sf-900 II SFM medium (GIBCO BRL) containing 10% fetal calf serum and cultured at 27° C. for 24 hrs. The recombinant baculovirus virus stock BAC-HJNK1 and BAC-caMKK7 were added by 0.2 ml each, and the cells were further cultured for 60 hrs. The cells were separated from the culture solution by centrifugation (3000 rpm, 10 min.) and washed twice with PBS. The cells were suspended in 10 ml of Lysis buffer (25 mM HEPES (pH 7.5), 1% Triton X, 130 mM NaCl, 1 mM EDTA, 1 mM DTT, 25 mM β-glycerophosphate, 20 μM leupeptin, 1 mM APMSF, 1 mM sodium orthovanadate) and ruptured by 4 times of treatment with a homogenizer (POLYTRON) at 20000 rpm, 30 seconds each. Active JNK1 was purified from a supernatant obtained by centrifugal separation (40000 rpm, 45 min.) by the use of Anti-FLAG M2 Affinity Gel (Sigma).
(5) Preparation of Recombinant cJUN
Escherichia coli JM109 (Toyobo Co., Ltd.) was transformed with a plasmid pGEJUN to give ampicillin resistant pGEJUN/JM109. […]
A reaction solution (37.5 μl, 25 mM HEPES (pH 7.5), 10 mM magnesium acetate, 1 mM DTT) containing 50 ng of active JNK1 and 1 μg of cJUN was dissolved in DMSO. […] After drying at 45° C. for 60 min., 40 μl of Microscint 0 (Packard Japan) was added and the radioactivity was measured on TopCount (Packard Japan).

The subject of the next experiment is Male wistar rats. Put plainly: Pressure overloaded cardiac hypertrophy induced by an abdominal aortic stenosis (rat). The format is in vivo. As to conditions: 10 mg/kg p.o. once a day, day 7 after aortic stenosis. As for the experimental part:
Preparation of the Model of Pressure Overloaded Cardiac Hypertrophy Induced by an Abdominal Aortic Stenosis (Rat)
Male wistar rats (body weight 260-300 g, CLEA Japan, Inc) were used. Under xylazine (10 mg/kg, i.p.) and ketamine (50 mg/kg, i.p.) anesthesia, abdominal aorta was exposed by median laparotomy. The left and right renal arteries were detached from the back, a 22G injection needle was put along the artery and it was ligated together with the aorta using a 2-0 silk thread just below the right renal artery. Then, the injection needle was removed to make a stenosis in the abdominal aorta. The abdomen was closed and the rats were housed commonly. For a sham group, the abdomen was closed without ligation (no stenosis) with a silk thread. […] At day 7 after the preparation of aortic stenosis, the body weight was measured, and the heart was removed and then extracted under pentobarbital (50 mg/kg, i.p.) anesthesia. The right and left artium and right ventricle were excised from the heart and the wet weight of the left ventricle was measured. The left ventricle weight to body weight ratio of each rat was calculated and an increase from the average value of the sham group was calculated. Inhibitory rate of each group to a cardiac hypertrophy was calculated based on the control group as 100%.

Take `COC(=O)c1c(-c2ccccc2)c2cc(Br)ccc2c(=O)n1Cc1ccc(S(C)(=O)=O)cc1` [Example 94, 6-bromo-2-(4-methanesulfonylbenzyl)-1-oxo-4-phenyl-1,2-dihydroisoquinoline-3-carboxylic acid methyl ester]: half-maximal inhibition on human JNK1 (IC50) was put at 0.03 µM. For the same molecule, in the experiment with Male wistar rats, the “Left ventricular weight/body weight ratio (mg/g) amount of increase from sham group” value is listed as 0.31 ± 0.06 (Inhibitory mg/g and the “Left ventricular weight/body weight ratio (mg/g) value” is listed as 2.21 ± 0.06 mg/g.
